## AlphaSeq binding of Ab-14 heavy chain variants to a spike HR2 peptide

Values reported by Engelhart et al. 2022, doi:10.1038/s41597-022-01779-4 (FLAb copy).

The target is the same throughout: PDVDLGDISGINAS, from the HR2 region of SARS-CoV-2 spike.

Parent: Ab-14, a human scFv built as VH, the linker GGGGSGGGGSGGGGS, VL. Only the CDRs of the heavy chain vary.
VH: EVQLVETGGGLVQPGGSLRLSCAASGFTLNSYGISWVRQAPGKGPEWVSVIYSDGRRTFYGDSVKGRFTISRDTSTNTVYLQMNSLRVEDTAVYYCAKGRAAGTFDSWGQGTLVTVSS
VL: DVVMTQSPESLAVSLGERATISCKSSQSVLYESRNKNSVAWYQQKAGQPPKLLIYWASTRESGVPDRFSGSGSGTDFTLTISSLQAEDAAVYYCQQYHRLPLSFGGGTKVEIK

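The starting antibody came from a phage panning campaign against this peptide. Library AAYL49 holds single substitutions and randomly drawn double and triple substitutions in the CDRs. The scFvs were displayed on barcoded MATa yeast, the peptide on MATalpha yeast. After mating in shaken culture at 30 °C for 16 h, diploids were selected and their barcode pairs sequenced. Each replicate has its own calibration line, from reference interactions of the BCL2 family. Mating was done three times.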

Positions count from residue 1 of the parent VH; I51K puts K in place of I.
Scale: log10 of Kd in nM, estimated from mating counts; low values are strong binders.
Replicates are averaged; those with no signal do not enter the mean.
Where no diploid with the target was found in that replicate, the entry reads "ND": below detection, most likely a poor binder, though not proof of it.

changes	log10 Kd (nM) by replicate	mean log10 Kd (nM)	empty controls
I51K/V64Y/T104N	ND / ND / ND	ND	1 of 9 (5.17)
V50T/G61M/A102I	ND / ND / ND	ND	1 of 9 (3.08)
T28L/V64F/F105G	ND / ND / ND	ND	0 of 9
Y32N/G33F/D54Y	3.93 / ND / ND	3.93	0 of 9
G61S/R100M/F105G	0.15 / 0.56 / 0.16	0.29	0 of 9
S35Y/I51E/V64I	ND / ND / 4.87	4.87	2 of 9 (4.21)
G33P/G61R/K65Q	ND / ND / ND	ND	0 of 9
L29K/S31I/F105L	2.74 / 2.43 / 3.13	2.76	1 of 9 (3.34)
D54Y/F59S/Y60D	ND / ND / ND	ND	0 of 9
L29V/S31Y/Y52S	ND / 3.14 / ND	3.14	2 of 9 (4.41)
L29M/S35D/T104E	ND / ND / ND	ND	0 of 9
G55M/T58S/G99V	ND / ND / ND	ND	0 of 9
Y32N/I51L/D106Q	ND / ND / ND	ND	2 of 9 (4.03)
S31G/D54H/D106H	5.71 / ND / ND	5.71	2 of 9 (3.75)
G33H/S53R/D54N	ND / 3.06 / ND	3.06	1 of 9 (3.67)
F27W/S31R/G61Y	4.39 / 5.51 / ND	4.95	6 of 9 (5.03)
S53L/R57P/F59M	ND / ND / 5.49	5.49	3 of 9 (4.22)
G55L/V64T/A101T	ND / ND / ND	ND	1 of 9 (3.61)
Y32V/I51E/G55R	ND / ND / ND	ND	0 of 9
Y52V/G103V/T104M	ND / ND / ND	ND	1 of 9 (3.56)
S31A/R57Q/R100V	2.80 / 3.09 / 3.83	3.24	1 of 9 (2.94)
I34K/Y60A/F105M	ND / ND / ND	ND	0 of 9
I34D/R56V/S107E	1.11 / 1.25 / 1.42	1.26	2 of 9 (3.00)
K65T/A102Q	1.85 / 1.81 / 1.77	1.81	1 of 9 (4.10)
L29W/D54S/A102Q	ND / ND / ND	ND	0 of 9
R56G/R57M/K65V	ND / ND / ND	ND	4 of 9 (3.82)
S35A/T58Y/A101L	3.81 / ND / ND	3.81	4 of 9 (3.54)
F27D/T28M/N30Q	0.38 / 0.86 / 0.78	0.67	0 of 9
T28N/G61E/A102M	ND / 4.53 / ND	4.53	0 of 9
N30C/R100M/F105D	ND / ND / ND	ND	0 of 9
Y32W/G33I/F105W	ND / ND / ND	ND	0 of 9
A101P/A102L	ND / ND / ND	ND	0 of 9
L29A/K65C	ND / ND / ND	ND	0 of 9
G26V/T28W/D54K	3.87 / ND / 4.33	4.10	3 of 9 (4.28)
D62N/S107D	1.48 / 1.77 / 2.05	1.76	0 of 9
R56T/F59Y/Y60R	ND / ND / ND	ND	0 of 9
G33R/D62V/D106G	ND / ND / ND	ND	0 of 9
T28H/I34T/S63M	ND / ND / ND	ND	1 of 9 (2.98)
R57C/T58F/S63H	ND / ND / ND	ND	0 of 9
Y52L/R100F/F105G	ND / ND / ND	ND	0 of 9
I34H/G55T/A102Q	ND / ND / ND	ND	2 of 9 (3.28)
V50A/I51H/R100D	ND / ND / ND	ND	0 of 9
G33R/D54L/V64K	ND / ND / ND	ND	0 of 9
F27N/F59T/D62L	ND / ND / ND	ND	2 of 9 (3.79)
T28W/S63W/G103D	5.23 / ND / ND	5.23	1 of 9 (4.98)
I34H/S53L/G55K	ND / 3.34 / 3.87	3.61	4 of 9 (3.77)
T58L/F59W/A102W	ND / ND / ND	ND	0 of 9
N30M/S31I/G99N	ND / ND / ND	ND	1 of 9 (2.65)
G26K/Y60H/F105N	5.23 / ND / ND	5.23	1 of 9 (4.40)
G26P/A102D/G103W	ND / 3.86 / 5.78	4.82	4 of 9 (3.84)
Y32E/R57W/S107D	ND / 3.80 / ND	3.80	2 of 9 (5.54)
G55Y	ND / ND / ND	ND	1 of 9 (3.20)

The first 3 entries again:

changes	log10 Kd (nM) by replicate	mean log10 Kd (nM)	empty controls
I51K/V64Y/T104N	ND / ND / ND	ND	1 of 9 (5.17)
V50T/G61M/A102I	ND / ND / ND	ND	1 of 9 (3.08)
T28L/V64F/F105G	ND / ND / ND	ND	0 of 9

As a blank, each scFv also met three strains without target: over library AAYL49, 15% of these pairings were detected, typically at 4.06 and seldom below 2.83. The control count says in how many pairings with the empty strains this scFv gave a signal, with their mean in brackets.